# Reference: PubChem BioAssay AID743266 (National Center for Advancing Translational Sciences (NCATS), 2014)
# By UniProt entry, the sequences of proteins in these tests, tags left out.
# UniProt Q03431, whole entry: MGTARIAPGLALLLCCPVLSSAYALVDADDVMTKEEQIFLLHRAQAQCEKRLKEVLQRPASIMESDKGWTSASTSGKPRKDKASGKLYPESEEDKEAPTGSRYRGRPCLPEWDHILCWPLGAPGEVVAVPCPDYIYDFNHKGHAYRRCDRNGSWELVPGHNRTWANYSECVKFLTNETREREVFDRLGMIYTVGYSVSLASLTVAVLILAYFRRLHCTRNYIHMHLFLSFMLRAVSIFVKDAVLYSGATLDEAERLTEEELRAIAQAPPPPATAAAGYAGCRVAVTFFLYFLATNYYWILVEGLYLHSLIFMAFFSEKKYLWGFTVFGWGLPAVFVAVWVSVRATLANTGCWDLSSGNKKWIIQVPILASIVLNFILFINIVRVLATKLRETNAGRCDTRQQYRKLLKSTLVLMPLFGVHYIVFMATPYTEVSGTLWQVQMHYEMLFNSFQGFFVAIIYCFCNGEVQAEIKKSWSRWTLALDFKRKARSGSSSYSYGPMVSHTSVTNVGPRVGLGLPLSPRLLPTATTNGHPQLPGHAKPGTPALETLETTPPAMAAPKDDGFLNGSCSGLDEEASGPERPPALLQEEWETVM
# The entries are a selection whose mix differs from that of the whole data set. Activity calls are given as the source filed them. The call rests on the fitted dose curve; in most records, active means well fitted activation curve with a large enough effect; inconclusive means small, poorly fitted or top-dose-only effect, or another doubt; inactive means no such curve, though single readings can be large or run the other way.
# Molecular target: Parathyroid hormone/parathyroid hormone-related peptide receptor (Homo sapiens) (UniProt Q03431)
# Test: qHTS for PTHR1 Agonists: Primary Screen; further: nearly all actives have a fitted effect of over 55% in size
# Settings: HEK293 GP2 PTHR1 cells, GloSensor cAMP luminescence, 1 h; at 115 µM (top of the series)
row,Structure (SMILES),outcome
1,CCC(=O)N(c1ccccc1)C1(COC)CCN(CCc2cccs2)CC1,inactive
2,CCC(=O)N(c1ccccc1)C1(COC)CCN(CCn2nnn(CC)c2=O)CC1,inactive
